Earlier results, collected in patent US12491184B2 (Veradermics, Incorporated, priority 2022, dated 2025).

Details: during the first 12 h; cited from earlier work

Nc1cc(N2CCCCC2)nc(N)[n+]1[O-] [minoxidil]
predominant metabolite in the urine: glucuronide conjugate
